Results taken from US6908919B2, “Substituted polycyclic aryl and heteroaryl pyrazinones useful for selective inhibition of the coagulation cascade” (Pharmacia Corporation, priority 1999, dated 2005).

The chains behind the UniProt entries cited, without tags or fusion partners. Residues count along the entry.
UniProt P00761, 9-231: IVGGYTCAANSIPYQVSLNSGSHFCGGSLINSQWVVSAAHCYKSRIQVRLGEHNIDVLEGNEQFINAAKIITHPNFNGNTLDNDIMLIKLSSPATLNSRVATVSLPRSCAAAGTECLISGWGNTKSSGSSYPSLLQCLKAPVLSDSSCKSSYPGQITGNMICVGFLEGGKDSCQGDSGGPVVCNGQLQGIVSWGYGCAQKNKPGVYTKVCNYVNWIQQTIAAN

Molecular target: Trypsin (type IX from porcine pancreas) (Sus scrofa, UniProt P00761)
Assay: Trypsin Assay
Details: not given

For CC(C)Nc1nc(Cl)c(-c2cc(N)cc(C(=O)NC3CCC3)c2)n(CC(=O)NCc2ccc(C(=N)N)cc2)c1=O [Example 128-15], which IC50 is on record?
The IC50 was 36 nM.

How did the IC50 turn out when COc1ccc(CCNC(=O)c2cc(N)cc(-c3c(Cl)nc(NC(C)C)c(=O)n3CC(=O)NCc3ccc(C(=N)N)cc3)c2)cc1 [Example 128-20] was run?
The IC50 was 81 nM.

CC(C)Nc1nc(Cl)c(-c2cc(N)cc(C(=O)NC(C)(C)c3ccccc3)c2)n(CC(=O)NCc2ccc(C(=N)N)cc2)c1=O [Example 128-4] was tested. Which IC50 did it give?
Its IC50 is 51 nM.

Which IC50 does the source give for CN(C)CCNC(=N)c1ccc(CNC(=O)Cn2c(-c3cccc(N)c3)c(Cl)nc(NC3CCC3)c2=O)cc1 [Example 166] here?
Its IC50 is 81000 nM.

How did the IC50 turn out when Nc1cccc(-c2c(Cl)nc(NC3CCC3)c(=O)n2CC(=O)NCc2ccc3ccnc(N)c3c2)c1 [Example 147] was run?
Its IC50 is > 30000 nM.

For CC(C)Nc1nc(Cl)c(-c2cc(N)cc(C(=O)NCC(c3ccccc3)c3ccccc3)c2)n(CC(=O)NCc2ccc(C(=N)N)cc2)c1=O [Example 128-22], which IC50 is on record?
Its IC50 is 155 nM.

For CC(C)Nc1nc(Cl)c(-c2cc(N)cc(C(=O)NCc3cc(C(F)(F)F)cc(C(F)(F)F)c3)c2)n(CC(=O)NCc2ccc(C(=N)N)cc2)c1=O [Example 128-6], which IC50 is on record?
The IC50 was 481 nM.

Which IC50 does the source give for Nc1ccc(CNC(=O)Cn2c(-c3cccc(N)c3)c(Cl)nc(NC3CCC3)c2=O)cc1 [Example 158] here?
The IC50 was > 30000 nM.

Which IC50 does the source give for N=C(N)c1ccc(CNC(=O)Cn2c(-c3cc(N)cc(C(=O)O)c3)cnc(NC3CCC3)c2=O)cc1 [Example 118] here?
The IC50 was 60 nM.

Which IC50 does the source give for COC(=O)c1cc(N)cc(-c2cnc(NC3CCC3)c(=O)n2CC(=O)NCc2ccc(C(=N)N)cc2)c1 [Example 117] here?
Its IC50 is 22 nM.

With N=C(N)c1ccc(Cc2cccc(-n3c(-c4cccc(N)c4)c(Cl)nc(NC4CCC4)c3=O)c2)cc1 [Example 138] as the molecule, how does the IC50 read?
The IC50 was 700 nM.

For CC(C)Nc1nc(Cl)c(-c2cc(N)cc(C(=O)NCc3cccc(C(F)(F)F)c3)c2)n(CC(=O)NCc2ccc(C(=N)N)cc2)c1=O [Example 128-13], which IC50 is on record?
The IC50 was 181 nM.

For N=C(N)c1ccc(CNCCn2c(-c3cccc(N)c3)c(Cl)nc(NC3CCC3)c2=O)cc1 [Example 139], which IC50 is on record?
The IC50 was 730 nM.

Which IC50 does the source give for CC(C)Nc1nc(Cl)c(-c2cc(N)cc(C(=O)NCCCc3ccccc3)c2)n(CC(=O)NCc2ccc(C(=N)N)cc2)c1=O [Example 128-21] here?
The IC50 was 116 nM.

How did the IC50 turn out when CC(C)Nc1nc(Cl)c(-c2cc(N)cc(C(N)=O)c2)n(CC(=O)NCc2ccc(C(=N)N)cc2)c1=O [Example 128-1] was run?
The IC50 was 40 nM.

CC(C)Nc1nc(Cl)c(-c2cc(N)cc(C(=O)NC3CCCC3)c2)n(CC(=O)NCc2ccc(C(=N)N)cc2)c1=O [Example 128-16] was tested. Which IC50 did it give?
Its IC50 is 37 nM.

For N=C(N)c1ccc(CNC(=O)Cn2c(-c3cc(N)cc(N)c3)cnc(NC3CCC3)c2=O)cc1 [Example 119], which IC50 is on record?
The IC50 was 19 nM.

Same assay, conditions: 1 h, read-out: % Inhibition Trpysin II (30 µM)

For CC(C)Nc1nc(Cl)c(-c2cccc(N)c2)n(CC(=O)Nc2ccc(S(=O)(=O)NC(=N)N)cc2)c1=O [Example 155], which inhibition at 30 µM is on record?
The inhibition at 30 µM was 4%.

With C/N=C(/NC)c1ccc(CNC(=O)Cn2c(-c3cccc(N)c3)c(Cl)nc(NC3CCC3)c2=O)cc1 [Example 162] as the molecule, how does the inhibition at 30 µM read?
Its inhibition at 30 µM is 36%.

Which inhibition at 30 µM does the source give for N/N=C(/N)c1ccc(CNC(=O)Cn2c(-c3cccc(N)c3)c(Cl)nc(NC3CCC3)c2=O)cc1 [Example 148] here?
Its inhibition at 30 µM is 33%.

How did the inhibition at 30 µM turn out when Nc1cccc(-c2c(Cl)nc(NC3CCC3)c(=O)n2CC(=O)NCc2ccc3c(N)nsc3c2)c1 [Example 145] was run?
Its inhibition at 30 µM is 34%.

Which inhibition at 30 µM does the source give for COCC/N=C(\NCCOC)c1ccc(CNC(=O)Cn2c(-c3cccc(N)c3)c(Cl)nc(NC3CCC3)c2=O)cc1 [Example 164] here?
The inhibition at 30 µM was 15%.

For NC1=NCCSc2cc(CNC(=O)Cn3c(-c4cccc(N)c4)c(Cl)nc(NC4CCC4)c3=O)ccc21 [Example 154], which inhibition at 30 µM is on record?
The inhibition at 30 µM was 7%.

Same assay, conditions: at 30 µM inhibitor

Which “% Inhibition Trpysin II (30 µM)” value does the source give for Cc1c(Cl)nc(NCCc2ccc(Cl)cc2)c(=O)n1CC(=O)NCc1ccc(C(=N)N)cc1 [1471-2] here?
The value was 0%.

Same assay, conditions: inhibitor at 100 µM

With O=C(Cn1c(Cc2ccccc2)c(Cl)nc(NCCN2CCOCC2)c1=O)NCCc1ccncc1 [Example E-0063] as the molecule, how does the “% Inhibition Trpysin II (100 µM)” value read?
Its value is 0%.

O=C(Cn1c(CCc2ccccc2)c(Cl)nc(NCc2ccccc2)c1=O)NCCc1ccncc1 [Example E-0065] was tested. Which “% Inhibition Trpysin II (100 µM)” value did it give?
The value was 0%.

For O=C(Cn1c(CCc2ccccc2)c(Cl)nc(NCCc2ccccc2)c1=O)NCCc1ccncc1 [Example E-0066], which “% Inhibition Trpysin II (100 µM)” value is on record?
Its value is 0%.

Which “% Inhibition Trpysin II (100 µM)” value does the source give for O=C(Cn1c(CCc2ccccc2)c(Cl)nc(NCCc2cccnc2)c1=O)NCCc1ccncc1 [Example E-0069] here?
Its value is 0%.

How did the “% Inhibition Trpysin II (100 µM)” value turn out when O=C(Cn1c(-c2ccc3c(c2)OCO3)c(Cl)nc(NCCc2ccc(Cl)cc2)c1=O)NCCc1ccncc1 [Example E-0044] was run?
The value was 3%.

O=C(Cn1c(-c2ccc3c(c2)OCO3)c(Cl)nc(NCc2ccccc2)c1=O)NCCc1ccncc1 [Example E-0041] was tested. Which “% Inhibition Trpysin II (100 µM)” value did it give?
Its value is 2%.

Which “% Inhibition Trpysin II (100 µM)” value does the source give for COc1ccc(-c2c(Cl)nc(NCCc3cccc(Cl)c3)c(=O)n2CC(=O)NCCc2cccnc2)cc1 [Example E-0104] here?
The value was 9%.

For O=C(Cn1c(-c2ccc3c(c2)OCO3)c(Cl)nc(NCCc2ccncc2)c1=O)NCCc1ccncc1 [Example E-0046], which “% Inhibition Trpysin II (100 µM)” value is on record?
The value was 4%.

Which “% Inhibition Trpysin II (100 µM)” value does the source give for O=C(Cn1c(-c2ccc3c(c2)OCO3)c(Cl)nc(NCCc2cccc(Cl)c2)c1=O)NCCc1ccncc1 [Example E-0043] here?
The value was 3%.

How did the “% Inhibition Trpysin II (100 µM)” value turn out when Cc1c(Cl)nc(NCCc2ccc(Cl)cc2)c(=O)n1CC(=O)NCCc1ccncc1 [Example E-0004] was run?
Its value is 0%.

How did the “% Inhibition Trpysin II (100 µM)” value turn out when O=C(Cn1c(CCc2ccccc2)c(Cl)nc(NCc2ccncc2)c1=O)NCCc1ccncc1 [Example E-0072] was run?
Its value is 0%.

O=C(Cn1c(Cc2ccccc2)c(Cl)nc(NCCc2ccc(Cl)cc2)c1=O)NCCc1ccncc1 [Example E-0060] was tested. Which “% Inhibition Trpysin II (100 µM)” value did it give?
Its value is 0%.

How did the “% Inhibition Trpysin II (100 µM)” value turn out when O=C(Cn1c(Cc2ccccc2)c(Cl)nc(NCc2ccncc2)c1=O)NCCc1ccncc1 [Example E-0064] was run?
The value was 0%.

O=C(Cn1c(Cc2ccccc2)c(Cl)nc(NCCc2cccnc2)c1=O)NCCc1ccncc1 [Example E-0061] was tested. Which “% Inhibition Trpysin II (100 µM)” value did it give?
The value was 0%.

Cc1c(Cl)nc(NCc2ccncc2)c(=O)n1CC(=O)NCCc1ccncc1 [Example E-0008] was tested. Which “% Inhibition Trpysin II (100 µM)” value did it give?
Its value is 0%.

With Cc1c(Cl)nc(NCCN2CCOCC2)c(=O)n1CC(=O)NCCc1ccncc1 [Example E-0007] as the molecule, how does the “% Inhibition Trpysin II (100 µM)” value read?
The value was 0%.

Which “% Inhibition Trpysin II (100 µM)” value does the source give for O=C(Cn1c(-c2ccc3c(c2)OCO3)c(Cl)nc(NCCc2cccnc2)c1=O)NCCc1ccncc1 [Example E-0045] here?
Its value is 4%.

O=C(Cn1c(-c2ccccc2)c(Cl)nc(NCCc2ccc(Cl)cc2)c1=O)NCCc1ccncc1 [Example E-0012] was tested. Which “% Inhibition Trpysin II (100 µM)” value did it give?
Its value is 0%.

With O=C(Cn1c(CCc2ccccc2)c(Cl)nc(NCCc2ccncc2)c1=O)NCCc1ccncc1 [Example E-0070] as the molecule, how does the “% Inhibition Trpysin II (100 µM)” value read?
Its value is 0%.

Same assay, conditions: read-out: IC50 Trpysin II

How did the IC50 turn out when CC(C)Nc1nc(Cl)c(-c2cc(N)cc(C(=O)NCc3ccc(Cl)cc3Cl)c2)n(CC(=O)NCc2ccc(C(=N)N)cc2)c1=O [Example 128-5] was run?
The IC50 was 90 nM.

With CC(C)Nc1nc(Cl)c(-c2cc(N)cc(C(=O)NCc3ccc(Br)cc3)c2)n(CC(=O)NCc2ccc(C(=N)N)cc2)c1=O [Example 128-8] as the molecule, how does the IC50 read?
The IC50 was 104 nM.

For C[C@@H](Nc1nc(Cl)c(-c2cccc(N)c2)n(CC(=O)NCc2ccc(C(=N)N)cc2)c1=O)C(=O)O [Example 134], which IC50 is on record?
The IC50 was 33 nM.

How did the IC50 turn out when C[C@H](Nc1nc(Cl)c(-c2cccc(N)c2)n(CC(=O)NCc2ccc(C(=N)N)cc2)c1=O)C(=O)O [Example 135] was run?
The IC50 was 1600 nM.
